Data as given in ChEMBL document CHEMBL2086356, “Identification of a novel family of BRAF(V600E) inhibitors” (J Med Chem, 2012).

Protein sequences, listed by entry. Tags and fused reporters are not part of them. Residues count along the entry.
UniProt P15056, whole entry: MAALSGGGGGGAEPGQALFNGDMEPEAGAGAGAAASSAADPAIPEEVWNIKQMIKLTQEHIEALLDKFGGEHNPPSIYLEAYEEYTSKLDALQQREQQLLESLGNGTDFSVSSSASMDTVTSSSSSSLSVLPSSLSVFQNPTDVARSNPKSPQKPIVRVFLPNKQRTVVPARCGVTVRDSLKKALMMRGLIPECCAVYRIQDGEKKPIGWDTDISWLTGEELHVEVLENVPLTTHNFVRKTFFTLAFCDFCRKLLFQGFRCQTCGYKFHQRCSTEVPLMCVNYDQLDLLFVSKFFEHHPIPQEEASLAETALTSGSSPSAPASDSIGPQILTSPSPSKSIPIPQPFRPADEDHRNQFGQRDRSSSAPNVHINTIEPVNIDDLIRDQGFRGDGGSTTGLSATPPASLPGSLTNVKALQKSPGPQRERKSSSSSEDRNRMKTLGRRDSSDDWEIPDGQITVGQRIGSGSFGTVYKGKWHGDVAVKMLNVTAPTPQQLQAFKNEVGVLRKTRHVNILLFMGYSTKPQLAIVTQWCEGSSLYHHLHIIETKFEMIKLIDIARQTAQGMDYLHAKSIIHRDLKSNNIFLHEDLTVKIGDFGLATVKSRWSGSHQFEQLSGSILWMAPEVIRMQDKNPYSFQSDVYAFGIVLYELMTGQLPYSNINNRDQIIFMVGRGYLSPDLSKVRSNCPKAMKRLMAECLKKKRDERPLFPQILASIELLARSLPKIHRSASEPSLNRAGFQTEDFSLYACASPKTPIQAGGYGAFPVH
UniProt P15056, 2-766 V600E limits assumed: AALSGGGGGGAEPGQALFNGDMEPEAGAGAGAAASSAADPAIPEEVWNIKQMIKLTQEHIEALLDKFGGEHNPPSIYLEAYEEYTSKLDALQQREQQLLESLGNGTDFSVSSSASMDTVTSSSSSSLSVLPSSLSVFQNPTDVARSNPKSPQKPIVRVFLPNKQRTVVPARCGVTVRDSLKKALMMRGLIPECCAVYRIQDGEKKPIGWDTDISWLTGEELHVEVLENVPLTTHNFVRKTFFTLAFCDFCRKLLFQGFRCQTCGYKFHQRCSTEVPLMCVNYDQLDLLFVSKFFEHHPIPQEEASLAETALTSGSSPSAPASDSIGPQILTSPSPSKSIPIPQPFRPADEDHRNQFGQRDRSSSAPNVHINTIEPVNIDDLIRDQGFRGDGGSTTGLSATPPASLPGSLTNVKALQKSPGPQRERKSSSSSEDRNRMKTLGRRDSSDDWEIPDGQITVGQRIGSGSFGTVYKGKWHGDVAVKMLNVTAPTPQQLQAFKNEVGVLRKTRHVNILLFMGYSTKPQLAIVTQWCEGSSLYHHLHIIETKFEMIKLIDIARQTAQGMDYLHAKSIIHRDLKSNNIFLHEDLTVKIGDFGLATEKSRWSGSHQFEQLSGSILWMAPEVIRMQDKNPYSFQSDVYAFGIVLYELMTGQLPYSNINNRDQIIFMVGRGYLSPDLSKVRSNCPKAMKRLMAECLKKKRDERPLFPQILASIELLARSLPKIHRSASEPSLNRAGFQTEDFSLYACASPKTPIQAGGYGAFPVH

Columns and labels:
[1] = biological target: Serine/threonine-protein kinase B-raf (Homo sapiens, UniProt P15056); assay: Inhibition of human 6x-His tagged wild type BRAF expressed in Sf9 cells by ELISA based kinase assay
Summary of the method: (§1)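 Enzyme at about 28–30 nM was preincubated with compound for 1 h at RT, then added to glutathione-plate-bound GST-MEK-His (50 μg/mL). Reaction in HEPES pH 7.0 with MgCl2 and 100 μM ATP ran 30 min at 37 °C. Read-out was anti-phospho-MEK1/2 then HRP chemiluminescence. Run in duplicate or triplicate; IC50 from a four-parameter logistic fit.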

[2] = biological target: Serine/threonine-protein kinase B-raf (Homo sapiens, UniProt P15056, V600E); assay: Inhibition of human 6x-His tagged BRAF V600E mutant expressed in Sf9 cells by ELISA based kinase assay; summary of the method: as §1

Question: Which results are given for `O=S(=O)(Nc1cc(Sc2nc[nH]n2)c(O)c2ccccc12)c1cccs1`?
Answer: IC50 [1]: 260 nM; IC50 [2]: 100 nM
